Read-outs that look alike come from different tables or passages of the source.
Legend:
ALPK1 = ALPK1 (Homo sapiens (Human), UniProt Q96QP1); test: ALPK1 in vitro kinase assay (HTRF of TIFA phosphorylation); type: biochemical
Description: In embodiments, a compound of Formula I, or a subembodiment described herein, is an inhibitor of ALPK1 as measured, for example, in an in vitro kinase assay, or an assay designed to measure the activation of downstream targets of ALPK1 pathway activation, for example NFkB transcriptional activation and the secretion of proinflammatory cytokines and chemokines, such as IL-8, which is also referred to as CXCL-8. In general, the computer program XL fit was used for data analysis, including non-linear regression analysis. The half maximal inhibitory concentration (IC50) was used as the measure of a compound's effectiveness in the assays. IC50 values were determined using the following logistic equation Y=min+(max−min)/(1+(X/IC50^−hillslpoe), where Y is the value at the compound concentration, X. The concentration response curve fitting was conducted using GraphPad Prism version 6.00 software.
ALPK1 kinase activity was measured in an in vitro assay using ADP-Heptose as the ALPK1 ligand and activator of its kinase activity and TIFA protein as the ALPK1 phosphorylation substrate. Since phosphorylated TIFA proteins oligomerize, Homogeneous Time-Resolved Fluorescence (HTRF) was used to measure protein:protein interaction between HA-tagged TIFA proteins as an indicator of TIFA phosphorylation.
In brief, dose-response studies were performed with HEK293 cells cultured in Dulbecco's Modified Eagle Medium (DMEM) supplemented 10% fetal bovine serum (FBS, Hyclone™) containing antibiotics (pen/strep, G418) in 384-well assay plates. Each well contained 0.1 mg TIFA, ALPK1 (2 nM final concentration in reaction mixture) and kinase buffer (100 mM of HEPES pH 7.4, 4 mM DTT, 40 mM MgCl2, 20 mM of β-Glycerol phosphate disodium salt, 0.4 mM of Na3VO4, 0.16 mg/mL). Titrations of the test compounds were prepared in dimethylsulphoxide (DMSO). The reaction was initiated by addition of ATP and ADP-Heptose.
For HTRF, samples were incubated with a Tb cryptate-labeled anti-HA antibody for capturing HA-tagged proteins according to the manufacturer's instructions (PerkinElmer™, CisBio™) and the fluorescence signal was quantified (Tecan Infinite F NANO+). HTRF signals were calculated as the HTRF ratio (ratio of fluorescence measured at 665 nm and 620 nm)×104 (thereby using the signal at 620 nm as an internal standard).
IC50 values were determined using 3- or 4-parameter logistic equation using GraphPad Prism version 6.00. The reference compound, A027, was used as a positive control for each plate.

Protein sequences, listed by entry. Tags and fused reporters are not part of them.
UniProt Q96QP1, whole entry V1092A: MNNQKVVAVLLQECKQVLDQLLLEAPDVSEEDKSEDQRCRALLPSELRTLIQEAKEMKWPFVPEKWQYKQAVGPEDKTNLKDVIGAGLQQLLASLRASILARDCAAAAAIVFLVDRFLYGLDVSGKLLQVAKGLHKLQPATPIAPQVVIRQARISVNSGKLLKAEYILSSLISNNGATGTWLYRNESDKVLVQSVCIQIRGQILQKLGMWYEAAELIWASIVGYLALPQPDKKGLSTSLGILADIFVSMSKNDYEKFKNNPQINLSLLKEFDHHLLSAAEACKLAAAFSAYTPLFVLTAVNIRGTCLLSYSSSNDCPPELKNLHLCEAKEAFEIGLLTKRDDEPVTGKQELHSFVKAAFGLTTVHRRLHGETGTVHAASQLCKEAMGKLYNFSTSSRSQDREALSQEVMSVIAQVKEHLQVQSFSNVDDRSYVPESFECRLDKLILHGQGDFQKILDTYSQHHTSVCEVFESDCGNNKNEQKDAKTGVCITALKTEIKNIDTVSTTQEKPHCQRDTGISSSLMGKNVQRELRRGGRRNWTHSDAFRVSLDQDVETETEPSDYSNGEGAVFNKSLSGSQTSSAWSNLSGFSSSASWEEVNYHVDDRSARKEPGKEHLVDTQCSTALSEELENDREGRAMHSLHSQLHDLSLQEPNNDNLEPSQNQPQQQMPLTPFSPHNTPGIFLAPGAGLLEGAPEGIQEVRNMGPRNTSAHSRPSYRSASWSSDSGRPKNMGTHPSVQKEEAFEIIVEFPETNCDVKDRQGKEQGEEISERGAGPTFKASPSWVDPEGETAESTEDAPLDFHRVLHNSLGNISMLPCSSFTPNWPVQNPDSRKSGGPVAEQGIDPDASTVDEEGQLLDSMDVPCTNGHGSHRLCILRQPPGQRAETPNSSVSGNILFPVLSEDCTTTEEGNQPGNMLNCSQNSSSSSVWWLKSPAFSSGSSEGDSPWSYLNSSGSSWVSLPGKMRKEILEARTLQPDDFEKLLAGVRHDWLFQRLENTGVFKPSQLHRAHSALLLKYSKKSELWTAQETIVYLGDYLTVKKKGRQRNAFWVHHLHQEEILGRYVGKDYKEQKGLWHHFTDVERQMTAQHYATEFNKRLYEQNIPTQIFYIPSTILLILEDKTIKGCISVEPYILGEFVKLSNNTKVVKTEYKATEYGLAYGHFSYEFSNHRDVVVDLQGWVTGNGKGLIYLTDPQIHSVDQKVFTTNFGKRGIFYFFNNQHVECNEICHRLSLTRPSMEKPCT

hALPK1-V1092A = hALPK1-V1092A (Homo sapiens (Human), UniProt Q96QP1, V1092A); test: cell-based
[1] = ALPK1 2 nM, TIFA substrate, ADP-Heptose activator, HTRF readout

Row | Compound | IC50 (ALPK1) | IC50 (hALPK1-V1092A) | IC50 (ALPK1; [1])
1 | C#C[C@](C)(c1ccc(Cl)cc1)c1csc(NC(=O)N2CCc3cc(N4CCNCC4)ccc3C2)n1 (stereo in doubt) [Example A280, N-(4-(2-(4-chlorophenyl)but-3-yn-2-yl)thiazol-2-yl)-6-(piperazin-1-yl)-3,4-dihydroisoquinoline-2(1H)-carboxamide] | 21 nM |  | 
2 | C#C[C@@](C)(c1ccc(Cl)cc1)c1csc(NC(=O)N2CCc3cc(N4CCNCC4)ccc3C2)n1 [Example A260, (S)-N-(4-(2-(4-chlorophenyl)but-3-yn-2-yl)thiazol-2-yl)-6-(piperazin-1-yl)-3,4-dihydroisoquinoline-2(1H)-carboxamide] | 74 nM |  | 
3 | C#C[C@@](C)(c1ccc(Cl)cc1)c1csc(NC(=O)N2CCc3cc(N4CCNCC4)ccc3C2)n1 [Example A281, N-(4-(2-(4-chlorophenyl)but-3-yn-2-yl)thiazol-2-yl)-6-(piperazin-1-l)-3,4-dihydroisoquinoline-2(1H)-carboxamide] | 38 nM | 486 nM | 
4 | C#CC(C)(c1ccc(Br)cc1)c1csc(NC(C)=O)n1 (stereo not shown) [Example D009, N-(4-(2-(4-bromophenyl)but-3-yn-2-yl)thiazol-2-yl)acetamide] |  |  | 16 nM
5 | C#C[C@](C)(c1ccc(Br)cc1)c1csc(NC(C)=O)n1 [Example D010, (R)-N-(4-(2-(4-bromophenyl)but-3-yn-2-yl)thiazol-2-yl)acetamide] |  |  | 102 nM
6 | C#C[C@@](C)(c1ccc(Br)cc1)c1csc(NC(C)=O)n1 [Example D011, (S)-N-(4-(2-(4-bromophenyl)but-3-yn-2-yl)thiazol-2-yl)acetamide] |  |  | 14 nM
